Results: patent publication US20030004179A1, “Treating allergic and inflammatory conditions” (priority 2002, published 2003)

Test system: seasonal allergic rhinitis patients
Test: Double-blinded, randomized clinical trials in seasonal allergic rhinitis patients
Settings: 5 mg

Clc1ccc2c(c1)CCc1cccnc1C2=C1CCNCC1 [Desloratadine, desloratadine]
Reduction of nasal symptoms versus placebo: significantly (p<0.01) more effective than placebo
